The values below come from article PMC4721142, “Randomized controlled studies on the efficacy of antiarthritic agents in inhibiting cartilage degeneration and pain associated with progression of osteoarthritis in the rat” (Arthritis Research & Therapy, 2016).

For this assay, the system named is RAW 264.7 cells. As to the kind of experiment: RANKL-mediated osteoclastogenesis / matrix resorption (Osteologic) assay.

With `NCCCC(O)(P(=O)(O)O)P(=O)(O)O` [Alendronate, Alendronate sodium], the “Lowest inhibitory concentration, matrix resorption” value stood at 1.25 µM.
